{"sequences": {"note": "Sequences of proteins named here, by UniProt entry; tags and fusion partners are left off.", "UniProt P21554, whole entry": "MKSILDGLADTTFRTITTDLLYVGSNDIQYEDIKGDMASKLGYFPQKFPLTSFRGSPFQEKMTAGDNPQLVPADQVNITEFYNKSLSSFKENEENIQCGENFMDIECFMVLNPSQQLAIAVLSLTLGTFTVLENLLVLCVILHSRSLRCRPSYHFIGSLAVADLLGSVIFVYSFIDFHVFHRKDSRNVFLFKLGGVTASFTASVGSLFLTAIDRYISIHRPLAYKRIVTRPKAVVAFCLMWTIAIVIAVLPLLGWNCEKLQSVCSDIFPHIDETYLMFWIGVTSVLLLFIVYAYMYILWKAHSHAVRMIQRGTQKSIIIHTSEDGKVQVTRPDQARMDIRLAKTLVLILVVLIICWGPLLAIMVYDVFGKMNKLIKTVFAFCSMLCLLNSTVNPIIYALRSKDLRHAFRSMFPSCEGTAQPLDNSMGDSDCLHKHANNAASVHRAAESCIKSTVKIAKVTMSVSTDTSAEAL"}, "source": "paper PMC6813218", "about": "(Frontiers in Molecular Neuroscience, 2019)", "biological_target": "hCB1R (Homo sapiens, UniProt P21554)", "type": "binding", "conditions": "DMSO; 24°C; dissociation started with 1 μM unlabeled CP55940", "description": "The assay was terminated by rapid filtration onto GF/B filters pre-soaked in assay buffer using a Brandel cell harvester. The filters were washed six times with the ice-cold buffer before being dried in a heated cabinet. Filters were placed in vials to which 3 mL Ultima Gold scintillation fluid was added. The radioactivity in each vial was then counted for 3 min in a Tri-Carb liquid scintillation counter.", "data": [{"smiles": "CCCCCCC(C)(C)c1ccc([C@@H]2C[C@H](O)CC[C@H]2CCCO)c(O)c1", "note": "[[^3H]CP55940]", "values": [{"measurement": "t1/2 (min) (95% CI) of [3H]CP55940 dissociation", "value": "4.75 (2.89–13.4) min"}]}]}
